This is an account of results in PubChem BioAssay AID651589 (Sanford-Burnham Center for Chemical Genomics, 2012).

This is a selection; strong and weak results do not stand in their true shares. Calls of active or inactive are those of the source.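 The calls were made as follows: active = mean inhibition of the reporter signal across four replicates at the single tested dose of 50% or more; inactive = the rest.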

The nature of this experiment: HIF-1a luciferase reporter signal reduction – MiaPaCa-2 cells, single concentration, counter-screen for HIF-2a inhibitor project, confirmation (AID 651589). The following applies: MiaPaCa-2 HIF-1a luciferase reporter, desferoxamine, overnight; at 18.8 µM; active compounds read high.
For `CCCCCCCCCCCCCCCC1C[N+](C)(C)CCOP(C)(=O)O1` (stereo unspecified), the inhibition is active: 77.3%.
